Tests used:
[1] = molecular target: recombinant human MMP-2 (Homo sapiens, UniProt P08253); conditions: read-out: MMP-2 IC50; Inhibition Table B
[2] = molecular target: recombinant human MMP-13 (Homo sapiens, UniProt P45452); assay: In vitro metalloprotease inhibition, fluorogenic MCA peptide substrate, MMP-13; type: biochemical; conditions: read-out: MMP-13 IC50; Inhibition Table B

By UniProt entry, the sequences of proteins in these tests, tags left out. Residues count along the entry.
UniProt P08253, 110-660 limits assumed: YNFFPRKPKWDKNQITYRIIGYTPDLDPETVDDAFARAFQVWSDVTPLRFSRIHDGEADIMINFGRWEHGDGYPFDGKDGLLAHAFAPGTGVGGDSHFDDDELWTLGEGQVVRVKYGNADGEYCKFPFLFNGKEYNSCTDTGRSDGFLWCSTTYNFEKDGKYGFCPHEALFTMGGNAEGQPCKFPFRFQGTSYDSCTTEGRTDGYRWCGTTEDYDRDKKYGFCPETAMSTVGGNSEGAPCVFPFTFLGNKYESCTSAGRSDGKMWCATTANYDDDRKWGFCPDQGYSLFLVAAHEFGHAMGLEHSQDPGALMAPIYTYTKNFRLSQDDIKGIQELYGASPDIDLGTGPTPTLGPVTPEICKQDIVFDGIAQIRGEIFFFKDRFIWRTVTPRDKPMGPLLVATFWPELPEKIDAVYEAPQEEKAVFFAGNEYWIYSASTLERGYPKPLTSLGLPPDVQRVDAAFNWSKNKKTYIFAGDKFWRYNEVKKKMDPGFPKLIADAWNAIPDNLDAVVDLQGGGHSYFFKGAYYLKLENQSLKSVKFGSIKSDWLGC

SMILES | IC50 [1] | IC50 [2]
O=C(NO)C1(S(=O)(=O)c2ccc(Oc3ccc(OC(F)(F)F)cc3)cc2)CCOCC1 [Example 69] | < 0.1 nM | < 0.1 nM
O=C(NO)C1(S(=O)(=O)c2ccc(Oc3ccc(Cl)cc3)cc2)CCOCC1 [Example 100, 4-[[4-(4-chlorophenoxy)-phenyl]sulfonyl]-tetrahydro-N-hydroxy-2H-pyran-4-carboxamide] | < 0.1 nM | 

From US20060084688A1, “Aromatic sulfone hydroxamic acid metalloprotease inhibitor” (priority 1997, published 2006)
